Values quoted from earlier work as cited in PMC8341946, “Wheat pathogen Zymoseptoria tritici N-myristoyltransferase inhibitors: on-target antifungal activity and an unusual metabolic defense mechanism” (RSC Chemical Biology, 2020).

Biological target: HsNMT1
Conditions: read-out: HsNMT1 IC50 (µM), value marked (Ki); Table S1, cells marked (Ki); ref SI refs 3, 5, 6 as given with each inhibitor name; cited from earlier work

c1cnc(OC2CCNCC2)c(-c2nc(Cc3cccc4ncccc34)no2)c1
Ki: 0.024 µM
